Data from PubChem BioAssay AID651953 (The Scripps Research Institute Molecular Screening Center, 2012).
The entries are a selection whose mix differs from that of the whole data set. Calls of active or inactive are those of the source. Cut-off read from the data, not from the text of the source: active = activation above about 12%; inactive = the rest.

Assay: nonspecific calcium signal increase, Ga16 cells – cell-based, fluorescence, counter-screen for TAAR1 antagonist project (AID 651953);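 note: 0% = vehicle wells and 100% = saturating stimulus response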
Conditions: Ga16-expressing cells, agonist counterscreen, at 3 µM, hits give high values

Row | SMILES | activation
1 | Cc1ccccc1OP(=O)(Nc1ccccn1)Oc1ccccc1C | inactive: 8.93%
